Laboratory results reported in ChEMBL document CHEMBL1144535, “3D pharmacophore based virtual screening of T-type calcium channel blockers” (Bioorg Med Chem, 2007).

tested on: HEK293; assay: Selectivity for alpha1G T-type calcium channel over alpha-1B N-type calcium channel expressed in HEK293 cells; format: cell-based; details: Homo sapiens

Compared with `O=C(NCCCN1CCCCC1)c1ccc2c(=O)n(Cc3ccc(Cl)cc3)c(=S)[nH]c2c1`, `O=C(NCCCN1CCCC1)c1ccc2c(=O)n(Cc3ccc(Cl)cc3)c(=S)[nH]c2c1` is higher in Selectivity index: 3.9 for the first, 14.8 for the second.

First: CCN1CCN(CCCNC(=O)c2ccc3c(=O)n(Cc4ccc(Cl)cc4)c(=S)[nH]c3c2)CC1
Second: CC1CCN(CCCNC(=O)c2ccc3c(=O)n(Cc4ccc(Cl)cc4)c(=S)[nH]c3c2)CC1
The Selectivity index of the first is lower: 2.8 for the first, 5.8 for the second.

Compound `CCC1CCCCN1CCCNC(=O)c1ccc2c(=O)n(Cc3ccc(Cl)cc3)c(=S)[nH]c2c1` (stereo not given) has a Selectivity index of 21.
